In this assay the target is T1, Asparagine synthetase [glutamine-hydrolyzing] (Rattus norvegicus) (UniProt P49088).
T1 sequence (whole entry): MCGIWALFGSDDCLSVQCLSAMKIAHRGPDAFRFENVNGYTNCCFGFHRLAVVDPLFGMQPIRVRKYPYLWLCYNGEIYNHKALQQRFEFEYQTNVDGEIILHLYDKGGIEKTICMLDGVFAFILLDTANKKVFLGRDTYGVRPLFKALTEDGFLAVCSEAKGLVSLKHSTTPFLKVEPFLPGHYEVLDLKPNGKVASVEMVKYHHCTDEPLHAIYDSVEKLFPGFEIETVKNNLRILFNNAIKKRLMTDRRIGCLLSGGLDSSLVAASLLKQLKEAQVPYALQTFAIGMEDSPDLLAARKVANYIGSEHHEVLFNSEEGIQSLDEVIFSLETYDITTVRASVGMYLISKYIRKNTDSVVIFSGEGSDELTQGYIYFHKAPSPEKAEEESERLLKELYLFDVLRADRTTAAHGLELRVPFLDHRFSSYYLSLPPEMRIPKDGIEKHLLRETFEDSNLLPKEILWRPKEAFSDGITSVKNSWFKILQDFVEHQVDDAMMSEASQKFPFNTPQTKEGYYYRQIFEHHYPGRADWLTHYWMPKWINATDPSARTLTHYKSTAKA
Description: Inhibition of asparagine synthetase isolated from rat bearing Novikoff hepatoma cells using [14C]-L-aspartic acid as substrate at 2 mM incubated 15 mins prior to substrate addition measured after 30 mins. The method in brief:
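ASase partially purified from excised rat Novikoff hepatoma (specific activity 0.51 μmol asparagine/mg protein/30 min). Enzyme and inhibitor were preincubated with 100 μmol Tris at pH 8.0 for 15 min at 37 °C. L-glutamine (20.0 μmol), L-aspartic acid (2.0 μmol) and L-aspartic acid-¹⁴C (2×10⁶ dpm) were then added and incubated 30 min at 37 °C. Isolated L-asparagine-¹⁴C was counted by scintillation. Percent inhibition came from duplicates on three separate days with fresh inhibitor solutions.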

In general, inhibition refers to how much of the control response was suppressed. Lower therefore signals little suppression. `N[C@@H](CC(=O)NCc1ccc(S(=O)(=O)F)cc1)C(=O)O`: the inhibition is 33.7%.

The values are drawn from ChEMBL document CHEMBL3243960.
